# According to patent US20240300941A1, “HPK1 INHIBITORS, PREPARATION METHOD AND APPLICATION THEREOF” (ZHUHAI YUFAN BIOTECHNOLOGIES CO., LTD., priority 2018, published 2024):
# Protein sequences, listed by entry. Tags and fused reporters are not part of them.
# UniProt Q92918, whole entry: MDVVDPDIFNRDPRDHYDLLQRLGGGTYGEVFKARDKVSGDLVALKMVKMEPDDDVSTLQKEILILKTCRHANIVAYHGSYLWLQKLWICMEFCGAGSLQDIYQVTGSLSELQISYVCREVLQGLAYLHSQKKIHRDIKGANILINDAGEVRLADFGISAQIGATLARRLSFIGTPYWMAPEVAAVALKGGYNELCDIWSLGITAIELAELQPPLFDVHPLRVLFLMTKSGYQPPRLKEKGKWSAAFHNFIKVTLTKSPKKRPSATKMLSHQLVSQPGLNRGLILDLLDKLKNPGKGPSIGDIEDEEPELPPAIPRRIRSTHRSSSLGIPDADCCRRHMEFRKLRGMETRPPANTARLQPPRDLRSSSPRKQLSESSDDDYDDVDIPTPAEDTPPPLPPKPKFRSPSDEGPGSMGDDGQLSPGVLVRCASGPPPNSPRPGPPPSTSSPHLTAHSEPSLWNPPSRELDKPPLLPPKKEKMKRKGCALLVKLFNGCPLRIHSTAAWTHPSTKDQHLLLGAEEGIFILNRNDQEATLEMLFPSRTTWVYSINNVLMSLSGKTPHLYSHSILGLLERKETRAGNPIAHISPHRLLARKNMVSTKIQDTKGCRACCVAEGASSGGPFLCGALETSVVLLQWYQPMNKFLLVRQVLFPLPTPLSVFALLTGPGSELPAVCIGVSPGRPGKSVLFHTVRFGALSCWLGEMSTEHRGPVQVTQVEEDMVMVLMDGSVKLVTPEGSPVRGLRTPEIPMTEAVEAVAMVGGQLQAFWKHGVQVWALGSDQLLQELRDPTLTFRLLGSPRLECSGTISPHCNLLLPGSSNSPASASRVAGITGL
# What was measured:
# [1] = test system: pSLP-76(Ser376) in Jurkat E6-1 cells; assay: Jurkat E6-1 pSLP-76(Ser376) HTRF experiment; conditions: 4 hours compound incubation, anti-human CD3 antibody 20 minutes, Phospho-SLP-76 / SLP-76 HTRF
# Method: Jurkat E6-1 cells were purchased from ATCC (Cat. No. TIB-152TM) and cultured overnight with RPMI 1640 containing 0.5% o FBS, after that 20 μL (10^7 cells/mL) cells were added to the experimental plates. Then the test compounds were diluted by three-fold gradient, and 10 different concentrations were prepared, and 5 μl of each was added to the experimental plate, and incubated for 4 hours in 37° C. incubator containing 5% CO2. Then 5 ul of 6× anti-human CD3 antibody (Biolegend, Cat. No. 300432) was added and incubated for 20 minutes in 37° C. incubator containing 5% CO2. Finally, the Phospho-SLP-76 and SLP-76 results were determined using the Cisbio Phospho-SLP-76 and SLP-76 HTRF assay kits (items: 63ADK076PEH and 63ADK077PEH, respectively). Based on the results, the IC50 of the compound is calculated.
# HPK1 = HPK1 (Homo sapiens (Human), UniProt Q92918); assay: HPK1 ADP-Glo enzyme assay; conditions: HPK1 protein 5 nM, MBP and ATP substrate, ADP-Glo readout
IC50 [1] [nM],IC50 (HPK1) [nM],SMILES
< 1000,,CN1CCC(c2ncc(-c3cnc(N)c(OCc4cccc(C#CC5(O)CC5)c4)c3)s2)CC1
,< 100,CC1CC(O)(C#Cc2cccc(COc3cc(-c4cnc(C5CCN(C)CC5)s4)cnc3N)c2)C1 (centres unmarked)
